The assay deals with CB1 (Homo sapiens (Human), UniProt P21554). Kind of assay: Displacement of [3H]CP55940 in membranes of CHO-K1 cells over-expressing CB1.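 Further: reported values are averages of 3-6 independent measurements.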 Conditions: CB1 versus CB2. On the technique in general: Loss of bound radioactivity is the signal in a displacement assay; it reports binding, not function.

The chains behind the UniProt entries cited, without tags or fusion partners.
UniProt P21554, whole entry: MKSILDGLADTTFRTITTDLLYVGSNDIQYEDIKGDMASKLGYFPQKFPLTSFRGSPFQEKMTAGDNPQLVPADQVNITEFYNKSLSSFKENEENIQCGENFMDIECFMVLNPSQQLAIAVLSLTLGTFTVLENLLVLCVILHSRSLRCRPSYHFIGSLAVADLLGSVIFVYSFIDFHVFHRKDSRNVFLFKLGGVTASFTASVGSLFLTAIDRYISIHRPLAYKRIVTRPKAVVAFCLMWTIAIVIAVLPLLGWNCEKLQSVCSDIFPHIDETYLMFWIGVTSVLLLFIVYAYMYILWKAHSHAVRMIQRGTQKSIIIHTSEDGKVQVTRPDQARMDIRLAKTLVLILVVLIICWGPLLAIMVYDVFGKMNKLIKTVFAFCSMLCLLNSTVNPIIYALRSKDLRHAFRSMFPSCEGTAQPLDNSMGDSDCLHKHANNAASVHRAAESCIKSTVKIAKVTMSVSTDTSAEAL

On to `O=C(CC1CCCCC1)NC1CCN(c2ncnc3c2nc(-c2ccccc2Cl)n3-c2ccc(Cl)cc2)CC1`, for which the “Binding Selectivity using CP55940 Displacement” value came to 1223.
